Assay: Inhibition of P-glycoprotein (unknown origin)
Parameters: species or system Homo sapiens

IC50: 400 nM
Compound: O[C@@H](COc1cccc2ncccc12)CN1CCN([C@@H]2c3ccccc3[C@@H]3[C@H](c4ccccc42)C3(Cl)Cl)CC1

Reference: ChEMBL document CHEMBL3826914, “Selective photodepletion of malignant T cells in extracorporeal photopheresis with selenorhodamine photosensitizers” (Bioorg Med Chem, 2016)
